The target of one series is AHR (Homo sapiens, UniProt P35869). Nature of the series: DRE-Luciferase Reporter Assay (HepG2 AhR-Lucia reporter cells). From the text: AHR binds to Dioxin Responsive Elements (DRE) upstream of genes that it activates. One measure of AHR activity is activation of a reporter gene, such as luciferase, downstream of one or multiple DRE elements. Luciferase activity will reflect activation and inhibition of AHR in the cells expressing his reporter. 20000 Human HepG2 liver carcinoma—AhR-Lucia reporter cells or Human HT29 colon adenocarcinoma—AhR reporter cells or other cell line with a DRE-luciferase reporter stably transfected were plated in Eagle's Minimal Essential Medium, 10% heat-inactivated FBS, 1× non-essential amino acids Pen-Strep (10,000 U/mL) and Normocin (100 ug/mL) in plates (96-well, 384-well or other plates) and incubated overnight at 37° C. in a CO2 incubator and treated with and without AhR antagonists at a log dilution starting at 100 uM. […]
Cells were incubated for 24 or 48 hours or another time point and then, supernatant was analyzed for determination of luciferase activity as a read-out of the AHR activation or inhibition. Luciferase was measured with the commercial kit QUANTI-Luc™ assay solution kit from Invivogen following the manufacturer's instructions.
The level of luciferase with only agonist ligand added was the maximum signal while the luciferase with […] was the minimum signal. IC50 values were determined as the concentration which inhibits half of the luciferase activity.

Protein sequences, listed by entry. Tags and fused reporters are not part of them. Residues count along the entry.
UniProt P35869, 11-848 limits assumed: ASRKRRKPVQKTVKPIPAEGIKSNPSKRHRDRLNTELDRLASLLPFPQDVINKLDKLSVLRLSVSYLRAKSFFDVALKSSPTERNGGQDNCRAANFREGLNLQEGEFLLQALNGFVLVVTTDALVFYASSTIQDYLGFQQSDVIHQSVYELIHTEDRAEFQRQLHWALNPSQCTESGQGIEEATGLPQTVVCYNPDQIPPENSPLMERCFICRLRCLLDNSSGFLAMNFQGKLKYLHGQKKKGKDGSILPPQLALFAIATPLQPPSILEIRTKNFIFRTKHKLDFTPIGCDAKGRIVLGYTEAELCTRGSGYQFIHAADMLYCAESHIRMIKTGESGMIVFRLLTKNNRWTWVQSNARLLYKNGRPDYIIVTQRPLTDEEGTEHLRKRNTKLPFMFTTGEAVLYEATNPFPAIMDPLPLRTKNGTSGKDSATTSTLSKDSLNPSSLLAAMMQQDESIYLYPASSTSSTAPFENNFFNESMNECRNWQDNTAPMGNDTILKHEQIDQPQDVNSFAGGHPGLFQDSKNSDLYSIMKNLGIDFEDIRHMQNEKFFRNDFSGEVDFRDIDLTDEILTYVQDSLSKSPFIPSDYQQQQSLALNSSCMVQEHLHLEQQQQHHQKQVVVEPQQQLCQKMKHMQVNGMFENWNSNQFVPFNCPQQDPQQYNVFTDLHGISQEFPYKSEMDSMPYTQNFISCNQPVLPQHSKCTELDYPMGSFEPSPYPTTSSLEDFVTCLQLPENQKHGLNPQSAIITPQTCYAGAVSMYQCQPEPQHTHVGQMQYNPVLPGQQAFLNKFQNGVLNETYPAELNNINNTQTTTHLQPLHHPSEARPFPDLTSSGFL

A short description of series [1]: Solubility Determination Assay (PBS, LC-MS/MS). The conditions noted are these: 2 hours. The method, then:
The stock solutions of test compounds and control compound progesterone were prepared in DMSO at the concentrations of 10 mM. 15 μL of stock solution (10 mM) of each sample was placed in order into their proper 96-well rack. 485 μL of PBS pH 1.6 and pH 7.4 were added into each vial of the cap-less Solubility Sample plate. The assay was performed in singlet. One stir stick was added to each vial and then the vial was sealed using a molded PTFE/Silicone plug. The solubility sample plates were then transferred to the Eppendorf Thermomixer Comfort plate shaker and shaken at 25° C. at 1100 rpm for 2 hours. After completion of the 2 hours, plugs were removed and the stir sticks were removed using a big magnet. The samples from the Solubility Sample plate were transferred into the filter plate. Using the Vacuum Manifold, all the samples were filtered. An aliquot of 5 μL was taken from the filtrate followed by addition of 495 μL of a mixture of H2O and acetonitrile containing internal standard (1:1). […]
The plate was placed into the well plate autosampler. The samples were evaluated by LC-MS/MS analysis. […]
The filtrate was analyzed and quantified against a standard of known concentration using LC coupled with mass spectral peak identification and quantitation. Solubility values of the test compound and control compound were calculated as follows: […]

Like-named read-outs stand apart in the source and are kept apart here.

The compound `Cn1nccc1C(=O)Nc1ccc2nc(-c3cc(F)ccc3C(F)F)[nH]c2c1` yielded an IC50 on AHR below 100 nM.

With `Cn1ncnc1C(=O)Nc1ccc2nc(-c3cc(F)ccc3C(F)F)[nH]c2c1`, in series [1] (PBS pH 1.6, 25° C.), the “Aq. Solubility at pH = 1.6” value is recorded as “+++ (“+++” indicates a solubility value equal to or greater than 10 μM)”. In series [1] (PBS pH 7.4, 25° C.), the “Aq. Solubility at pH = 7.4” value is “++ (“++” indicates a solubility value between 1 and 10 μM)”. Moreover, the IC50 at AHR (read-out: HepG2-Luc IC50, HepG2 AhR-Lucia reporter cells, luciferase activity with AHR activating ligand at EC50) was below 100 nM.

The values are drawn from patent US12570638B2, “Fused imidazole derivatives as AHR antagonists” (Sail Biomedicines, Inc., priority 2020, dated 2026).
